Consider 1 molecule from ChEMBL document CHEMBL1124775 (J Med Chem, 1990).

The species named for assay [1] is Rattus norvegicus. The assay can be described thus: Binding of [3H]diprenorphine to rat brain membranes was evaluated and receptor binding capacity was determined. Particulars: Membrane.
The species named for assay [2] is Rattus norvegicus. The experiment in a line: Binding of [3H]diprenorphine to rat striatal membranes was evaluated and receptor binding capacity was determined. The note with it: Striatum, Membrane.

As for `CO[C@]12CC[C@@]3(C[C@@H]1C(C)(C)O)[C@H]1Cc4ccc(O)c5c4[C@@]3(CCN1CC1CC1)[C@H]2O5`, the Bmax (fM (mg of protein)-1) in the assay listed under Rattus norvegicus [1] came out at 209; in the assay listed under Rattus norvegicus [2] it was 284.
